Source: PubChem BioAssay (National Center for Advancing Translational Sciences (NCATS))
gsp antagonist = antagonists of gsp mutant (McCune-Albright syndrome) | gsp-mutant cells, cAMP HTRF, 30 min | Potency, µM (titrated, usually from 76.9 µM), for inactives: top-dose activity change, negative = inhibition, hits mostly inhibitors | 340,000 tested, 0.4% active | AID 624288; calls by dose curve; cell line not stated here;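 note: intracellular cAMP measured with PDE inhibitor Ro 20-1724 present during compound exposure; potency is the fitted concentration of half-maximal effect; % is set by controls: 0 for no effect and ±100 for the full control effect; nearly all actives have a fitted effect of over 65% in size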
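Measurement of cellular cAMP by homogeneous time-resolved fluorescence following a 30 min compound exposure at 37C. The PDE inhibitor […] was present throughout; the assay buffer was DPBS with 0.05% BSA and 0.005% Tween 20.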
KinaseGlo FLuc = blocks Kinase-Glo luciferase, a counter-screen artifact | Q27757 | Kinase-Glo luciferase, ATP luminescence, 8 min | Potency, µM (doses to about 38.3 µM), for the others: at the highest dose activity change, negative = inhibition, most hits filed as inhibitors | 200,000 tested, 0.28% active | AID 1379; note: potency is the fitted concentration of half-maximal effect; % is set by controls: 0 for no effect and ±100 for the full control effect; nearly all actives have a fitted effect of over 60% in size
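Light output from Kinase-Glo luciferase with luciferin and 10 uM ATP in 50 mM imidazole pH 7.2, KCl, MgCl2, Tween 20, BSA; compound pin-delivered, 8-min ambient incubation, then luminescence read.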
gsp ag = gsp mutant agonism | 340,000 tested, 0.13% active | Potency, µM (titrated, usually from 76.9 µM), for inactives: at the highest dose activation (cAMP increase), actives largely listed as activators | gsp mutant cells, cAMP HTRF, 30 min; active = well fitted activation curve with a large enough effect; inconclusive = small, poorly fitted or top-dose-only effect, or another doubt; inactive = no such curve, though single readings can be large or run the other way; cell line not stated here;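 note: phosphodiesterase inhibitor Ro 20-1724 added with compounds to block cAMP breakdown; potency is the fitted concentration of half-maximal effect; nearly all actives have a fitted effect of over 60% in size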
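Cells in DMEM/10% FBS with G418 were pretreated with compounds in DMSO plus […] (300 uM stock) for 30 min at 37C. cAMP was measured by HTRF (cAMP-d2 plus anti-cAMP antibody-K) after 30 min at room temperature.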
miR-21 reporter = raises the signal of a miR-21 reporter | HeLa miR-21 FLuc reporter, luciferase, 48 h | Potency, µM (doses to about 38.3 µM), for the others: at the highest dose reporter change, positive = more light | 340,000 tested, under 10 active | AID 2288; active = well fitted rising curve with a large enough effect; inconclusive = small, poorly fitted or top-dose-only effect; inactive = no such curve, though single readings can be large or run the other way;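 also: % of control where 0% means no effect; miR-21 action dims this reporter so a rising signal means less miR-21 action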
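HeLa cells stably expressing CMV-driven firefly luciferase with a downstream miR-21 binding sequence, endogenously expressing miR-21, were treated with titrations (up to about 40uM final) for 48 hours at 37 degree Celsius. Luciferase luminescence was read after lysis.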
RXFP1 antagonist = blocks the human relaxin receptor RXFP1. 350,000 tested, 0.59% active. HEK293-RXFP1, relaxin-stimulated cAMP HTRF, 30 min; active compounds read low. AID 1259400. activity change, negative = inhibition, % at 57.5 µM. Q9HBX9;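 active = activity change of -60% or lower, but not beyond a set lower limit; inconclusive = change between -60% and -40%, or beyond the set limit; inactive = change above -40%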; note: % is set by controls: 0 for no effect and ±100 for the full control effect
RXFP1 ag = activates the human relaxin receptor RXFP1; Q9HBX9; HEK293T-RXFP1 cAMP TR-FRET, 30 min; response scale: percent of porcine relaxin response, buffer zero; Potency, µM (highest dose often 57.5 µM), for the others: at the top dose activation, actives largely listed as activators; 370,000 tested, 0.3% active; AID 2676; note: potency is the fitted concentration of half-maximal effect; % is set by controls: 0 for no effect and ±100 for the full control effect; nearly all actives have a fitted effect of over 60% in size
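cAMP rise read by TR-FRET after 30 min, 37C compound exposure (up to 58 uM) in RXFP1-transfected HEK293 cells with Ro 20174 present. EC50 from Hill-equation fits, with 29 nM porcine relaxin as 100% and buffer as basal.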
* = called active by the depositor; ? = inconclusive; . = no result given; [ ] = another dose, or the depositor's remark. Sampled rows, rich in hits. Any-hit rate of the full collection: about 1%. Unless noted, calls come from the whole dose curve; as a rule, active = well fitted curve in the direction sought with a large enough effect; inconclusive = small, poorly fitted or top-dose-only effect, or another doubt; inactive = no such curve, though single readings can be large; an effect the other way counts as inactive or inconclusive.

Second line of a record – gsp antagonist, miR-21 reporter, gsp ag, KinaseGlo FLuc, RXFP1 ag, RXFP1 antagonist
CCCCCCCCC[n+]1cccc2c3ccccc3ccc21
    -14%, ?, -1%, -1%, 0%, -60*
CC(=O)OCCCNc1cc(Sc2nc3ccccc3s2)c2nonc2c1[N+](=O)[O-]
    13%, -7%, 13%, 1%, 9%, -16
CC(=O)OCCNc1cc(Sc2nc3ccccc3[nH]2)c2nonc2c1[N+](=O)[O-]
    ?, 5%, ?, 0%, 5%, -78*
O=C(Nc1cccc(C(=O)N2CCN(c3ccccc3)CC2)c1)c1nsc2ccccc12
    ., -37%, ., ., 5%, -22
COc1ccc(Br)cc1CN(C)C(=O)CNC(=O)c1ccc2ccccc2c1
    32µM*, 0%, 9%[15.4 µM], ., 0%, -1
O=C(Cn1[nH]c(=O)c2ccccc2c1=O)OCC(=O)c1ccc(Br)cc1
    -15%, ., -10%[15.4 µM], ., 1%, -76*
CC1CN(c2ncc(/C=N/NC(=O)c3ccccc3O)s2)CC(C)O1 (stereo not drawn)
    ?, -1%, 2%[15.4 µM], -1%, -1%, -73*
O=C(N/N=C/c1cnc(N2CCCCC2)s1)c1ccc(C(F)(F)F)cc1
    -4%, 0%, -1%, ., -2%, -1
CCOc1cccc(/C=N/NC(=O)c2cc(-c3cccn3C)n[nH]2)c1O
    ?, 19%, 1%[15.4 µM], -3%, -3%, -77*
CC12CCC(=O)N1C(C(=O)Nc1nc3ccc(Cl)cc3s1)CS2 (stereo not drawn)
    -16%, ., 4%[15.4 µM], ., 0%, -60*
CC12CCC(=O)N1C(C(=O)Nc1nc3ccc(S(C)(=O)=O)cc3s1)CS2 (stereo not drawn)
    2%, -1%, 11%, ., 4%, -3
CCOc1ccc(-c2nnc(Nc3ccc(OC)c(C(=O)N4CCCCC4)c3)c3ccccc23)cc1
    35µM*, 18%, -70%, 0%, 0%, 1
CCOc1ccc(-c2nc3c(C#N)c[nH]n3c2NC2CCCC2)cc1
    ., 2%, ., ., 1%, 3
Cc1cccc(N2CCN(C(=O)C3CCN(S(=O)(=O)c4cccc5nsnc45)CC3)CC2C)c1 (stereo not drawn)
    35µM*, ?, 17%, 5%, 0%, -8
Cc1cccc(N2CCN(C(=O)C3CCN(S(=O)(=O)c4cccc5cccnc45)CC3)CC2C)c1 (stereo not drawn)
    -27%, 7%, -81%, -4%, 0%, .
Cc1cccc(N2CCN(C(=O)C3CCN(c4nnc(-n5cccc5)s4)CC3)CC2C)c1 (stereo not drawn)
    28µM*, 12%, -15%, 4%, 6%, -68*
Cc1ccc(Cl)cc1N1CCN(C(=O)C2CCN(c3nnc(-n4cccc4)s3)CC2)CC1
    -19%, 9%, 26%, 6%, 2%, .
COc1ccc(C)cc1NS(=O)(=O)c1ccc2[nH]c(=O)c(=O)[nH]c2c1
    ., -3%, ., ., 7%, .
CN(c1ncnc2c1c(-c1ccccc1)cn2-c1ccc(F)cc1)C1CCCCC1
    ., 1%, ., ., 2%, 6
CC1CCN(c2ncnc3c2cnn3-c2ccc(F)cc2)CC1
    ., -17%, ., ., -1%, -13
CC12CC3CC(C)(C1)CC(C(=O)N1CCCC1)(C3)C2
    0%, 0%, -35%, ., 2%, -88*
CN1CCN(C(=O)C23CC4CC(C)(CC(C)(C4)C2)C3)CC1
    5%, -5%, -18%, ., 1%, 3
Cc1ccc2nc(N3C(=O)C(O)=C(C(=O)c4cc5ccccc5o4)C3c3cccs3)sc2c1 (stereo not drawn)
    -5%, -37%, 30%[15.4 µM], -1%, -1%, -14
O=C(C1=C(O)C(=O)N(CCc2ccccc2)C1c1ccncc1)c1cc2ccccc2o1 (stereo not drawn)
    11%, -2%, 42%[15.4 µM], -3%, 14µM*, 13
O=C(C1=C(O)C(=O)N(c2nccs2)C1c1ccccc1)c1cc2ccccc2o1 (stereo not drawn)
    -7%, -10%, ?, ., 16µM*, 9
O=C(CCc1ccc(S(=O)(=O)N2CCOCC2)cc1)Nc1nc(COc2ccccc2)cs1
    28µM*, 27%, 0%, -3%, 0%, 0
O=C(Nc1ccc(S(=O)(=O)N2CCOCC2)cc1)c1cc(-c2cc(Cl)ccc2O)n[nH]1
    ?, ?, -35%, ., 1%, -60*
Cc1cc(O)c(-c2cc(C(=O)Nc3ccc(S(=O)(=O)N4CCOCC4)cc3)[nH]n2)cc1C
    ?, ?, -9%, 5%, -1%, -2
Cc1c([N+](=O)[O-])cc(N2C(=O)C=CC2=O)cc1[N+](=O)[O-]
    11%, ., 3%[15.4 µM], ., ., ?
Cc1cc(C)cc(N2C(=O)C=CC2=O)c1
    ?, ., -11%, ., ., -85*
O=C(c1ccc2c(c1)OCO2)N1CCC2(CC1)Oc1ccc(F)cc1C(=O)C21CC(c2cccnc2)=NO1 (stereo not drawn)
    35µM*, -2%, ., ., 0%, .
COc1cc(/C=C/c2nc(C#N)c(NC3CCCCC3)o2)cc(OC)c1OC
    ., 15%, ., ., 15%, 8
Cc1oc2c(c1C(=O)O)C(=O)c1ccccc1C2=O
    -1%, -7%, 17%, -2%, -1%, .
O=C(O)c1ccccc1-c1ccccc1C(=O)c1ccccc1
    ., ., ., -7%[7.66 µM], ., .
O=C1C(=O)c2c(C(=O)c3ccccc3)coc2-c2ccccc21
    -3%, ?, -11%, -5%, -1%, -78*
Cc1oc2c(c1C(=O)c1ccccc1)C(=O)C(=O)c1ccccc1-2
    ?, ?, 1%, -9%, 2%, -66*
Cc1ccccc1C(=O)N1CC/C(=N/OS(=O)(=O)O)c2ccc(Cl)cc21
    ., ., ., ., ., -15
O=C(Nc1nc2ccccc2s1)c1ccc(OCC2CCCO2)cc1 (stereo not drawn)
    32µM*, 28%, 12%, ., 1%, -35
COc1ccc(C(=O)Nc2nc3ccccc3s2)cc1
    ?, ?, 7%, ., 2%, -66*
COc1ccc(OC)c(C2C(C(=O)Nc3nc4ccccc4s3)=C(C)NC3=C2C(=O)CCC3)c1 (stereo not drawn)
    32µM*, -2%, -15%, 1%, 3%, -3
COc1cccc(C2C(C(=O)Nc3nc4ccccc4s3)=C(C)NC3=C2C(=O)CC(C)(C)C3)c1OC (stereo not drawn)
    -15%, -7%, 8%, 1%, 2%, -17
Cc1ccc(-c2ccccc2C#N)cc1
    ., ., ., ., ., -8
CCOC(=O)c1cccc(NC(=O)NC(C)c2c(-n3cccc3)sc3c2CCN(C)C3)c1 (stereo not drawn)
    ., -1%, ., ., -3%, -6

3 of the entries above in order of the RXFP1 ag value, high to low.
canonical_smiles	gsp antagonist	miR-21 reporter	gsp ag	RXFP1 ag	RXFP1 antagonist
COc1cc(/C=C/c2nc(C#N)c(NC3CCCCC3)o2)cc(OC)c1OC	.	15%	.	15%	8
COc1cccc(C2C(C(=O)Nc3nc4ccccc4s3)=C(C)NC3=C2C(=O)CC(C)(C)C3)c1OC (stereo not drawn)	-15%	-7%	8%	2%	-17
O=C(CCc1ccc(S(=O)(=O)N2CCOCC2)cc1)Nc1nc(COc2ccccc2)cs1	28µM*	27%	0%	0%	0

Rewritten as tab-separated lines: two of the compounds above.
Compound	gsp antagonist	miR-21 reporter	gsp ag	KinaseGlo FLuc	RXFP1 ag	RXFP1 antagonist
Cc1ccc2nc(N3C(=O)C(O)=C(C(=O)c4cc5ccccc5o4)C3c3cccs3)sc2c1 (stereo not drawn)	-5%	-37%	30%[15.4 µM]	-1%	-1%	-14
O=C(CCc1ccc(S(=O)(=O)N2CCOCC2)cc1)Nc1nc(COc2ccccc2)cs1	28µM*	27%	0%	-3%	0%	0

Pulled by structure from above:
Second line of a record – gsp antagonist, miR-21 reporter, gsp ag, KinaseGlo FLuc, RXFP1 ag, RXFP1 antagonist
COc1ccc(Br)cc1CN(C)C(=O)CNC(=O)c1ccc2ccccc2c1
    32µM*, 0%, 9%[15.4 µM], ., 0%, -1
O=C(N/N=C/c1cnc(N2CCCCC2)s1)c1ccc(C(F)(F)F)cc1
    -4%, 0%, -1%, ., -2%, -1
